# Measured values published in patent US20080070237A1, “Npas3 Mutant Mice and Uses for Screening and Testing Therapies for Schizophrenia and Related Neurological Disorders” (priority 2003, published 2008).
# Legend:
# Npas3+/+ control mice = conditions: mouse, in vivo
# Experimental: (§1) Locomotor Activity Tests. For all locomotor experiments, activity is measured in a 41×41×30 cm Omnitech Digiscan activity monitor equipped with 16 pairs of photodetector-LED beams along the x and y axis. (Accuscan Electronics, Columbus, Ohio). […] After the acclimation period, Baseline Locomoter Activity Test results are recorded for each test mouse. Subsequently, locomotor activity is tested following pharmacological challenges of three neurotransmitter pathways involved in schizophrenia and other neurological disorders. The pathways and the drugs used to challenge each include:
# (§2) a. Methamphetamine (a dopamine pathway agonist) 1.0 mg/kg in the form of D-methamphetamine-HCL (Sigma; St. Louis, Mo.). Methamphetamine is a strong dopamine agonist that will activate D1 and D2 receptor signaling.
# (§3) b. Haloperidol (a dopamine pathway antagonist) 0.3 mg/kg or 1.0 mg/kg (Tocris; Ellisville, Mo.).
# (§4) The test drug is 0.3 mg/kg clozapine (Sigma; St. Louis, Mo.). An atypical neuroleptic agent, clozapine, which has a high affinity for serotonin 5-HT2 and 5-HT6 receptors, is administered to determine the involvement of serotonergic pathways. Although clozapine can also antagonize both D1 and D2-like receptors, ten times higher concentrations are necessary to inhibit dopamine-dependent hyperactivity
# (§5) The test drugs are 1.0 mg/kg MK-801 or 0.3 mg/kg MK-801 (ICN Biomedicals Inc.; Aurora, Ohio). MK-801 is a noncompetitive NMDA receptor antagonist.
# (§6) Each drug is administered in a subcutaneous injection volume of 5 mL/kg body weight. Post-challenge activity is measured for three hours. Horizontal activity counts (scored by visual observance or breaking a light beam) and total distance are recorded during the pre- and post-challenge periods at 3-minute intervals with VersaMax software. All Locomoter Activity Tests are performed on mice at 7-9 weeks of age, with n=12. All values are expressed as mean±SEM. Statistical analyses are performed using appropriate analysis of variance (ANOVA) followed by adapted post hoc comparisons.
# Npas3−/− mice = conditions: mouse, in vivo
# Experimental: as §1, §2, §3, §4, §5, §6
compound,measurement,setting,value
"CCCN1CCC[C@@H]2Cc3n[nH]cc3C[C@H]21 [quinpirole, Quinpirole]",horizontal locomotor activity after drug challenge,Npas3+/+ control mice,inhibits the locomotor activity
same,horizontal locomotor activity after drug challenge,Npas3−/− mice,inhibition is only transient
same,time until mice resume locomotor activity after initial inhibition,"Npas3−/− mice; sc, 1 mg/kg",≤ 15 min
